By UniProt entry, the sequences of proteins in these tests, tags left out. Residues count along the entry.
UniProt P00736, 18-705, chain 1 of 2: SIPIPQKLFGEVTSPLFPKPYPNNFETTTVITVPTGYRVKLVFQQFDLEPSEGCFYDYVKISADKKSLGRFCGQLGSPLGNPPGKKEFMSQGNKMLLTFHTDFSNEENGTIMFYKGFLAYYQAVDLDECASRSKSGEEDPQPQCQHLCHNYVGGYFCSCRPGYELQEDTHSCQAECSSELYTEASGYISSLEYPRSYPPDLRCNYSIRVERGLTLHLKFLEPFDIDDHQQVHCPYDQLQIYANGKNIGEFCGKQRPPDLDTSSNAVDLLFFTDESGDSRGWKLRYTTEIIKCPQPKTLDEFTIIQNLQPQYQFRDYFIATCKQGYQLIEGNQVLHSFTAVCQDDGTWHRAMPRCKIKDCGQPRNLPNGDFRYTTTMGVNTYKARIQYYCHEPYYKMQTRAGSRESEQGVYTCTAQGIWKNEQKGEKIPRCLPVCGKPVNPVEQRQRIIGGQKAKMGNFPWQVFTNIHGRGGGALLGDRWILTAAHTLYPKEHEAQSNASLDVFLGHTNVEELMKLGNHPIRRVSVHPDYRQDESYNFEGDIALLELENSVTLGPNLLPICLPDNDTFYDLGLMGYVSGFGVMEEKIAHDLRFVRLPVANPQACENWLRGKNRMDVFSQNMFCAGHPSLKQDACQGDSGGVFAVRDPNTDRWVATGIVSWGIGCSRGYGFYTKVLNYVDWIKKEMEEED
UniProt P02745, 23-245: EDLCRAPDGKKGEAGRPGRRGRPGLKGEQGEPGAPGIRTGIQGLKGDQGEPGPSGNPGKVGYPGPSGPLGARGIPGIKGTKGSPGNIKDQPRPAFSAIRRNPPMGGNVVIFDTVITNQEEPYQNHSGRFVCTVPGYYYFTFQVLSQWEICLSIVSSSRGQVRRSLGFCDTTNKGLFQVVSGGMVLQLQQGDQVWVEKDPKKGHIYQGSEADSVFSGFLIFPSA
C1q, UniProt P02746, 28-253: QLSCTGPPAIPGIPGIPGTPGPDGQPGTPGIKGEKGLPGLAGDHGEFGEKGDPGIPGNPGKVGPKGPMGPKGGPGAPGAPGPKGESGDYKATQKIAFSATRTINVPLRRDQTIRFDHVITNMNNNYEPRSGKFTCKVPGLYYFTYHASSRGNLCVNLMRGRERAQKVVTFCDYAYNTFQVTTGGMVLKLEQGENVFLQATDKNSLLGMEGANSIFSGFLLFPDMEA
C1q, UniProt P02747, 29-245: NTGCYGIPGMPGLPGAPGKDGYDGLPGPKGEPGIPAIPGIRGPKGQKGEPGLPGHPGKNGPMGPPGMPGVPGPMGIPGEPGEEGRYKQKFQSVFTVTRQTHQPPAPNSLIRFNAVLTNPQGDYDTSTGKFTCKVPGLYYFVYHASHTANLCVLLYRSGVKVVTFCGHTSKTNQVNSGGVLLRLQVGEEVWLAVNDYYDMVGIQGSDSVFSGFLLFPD

According to paper PMC3630508 (Molecular immunology, 2012):

Tests used:
[1] = target: C1s-C1r-C1r-C1s tetramer (Homo sapiens) (UniProt P00736); test: SPR; conditions: cited from earlier work
[2] = target: Polar Assortant (PA); test: SPR

Substance	Kd [1]	Kd [2]	koff [2]	kon [2]
C1q (from UniProt P02745)	2.72 nM			
human C1q (from UniProt P02745 23-245; P02746 28-253; P02747 29-245) (complex)		33.3 nM	0.000808 s⁻¹	25800 M⁻¹ s⁻¹
